The source of these data is publication PMC10201506 (Signal Transduction and Targeted Therapy, 2023).

Test [1] concerns the target T1, caspase-3 (Homo sapiens, UniProt P42574).
T1 sequence (P42574 29-277): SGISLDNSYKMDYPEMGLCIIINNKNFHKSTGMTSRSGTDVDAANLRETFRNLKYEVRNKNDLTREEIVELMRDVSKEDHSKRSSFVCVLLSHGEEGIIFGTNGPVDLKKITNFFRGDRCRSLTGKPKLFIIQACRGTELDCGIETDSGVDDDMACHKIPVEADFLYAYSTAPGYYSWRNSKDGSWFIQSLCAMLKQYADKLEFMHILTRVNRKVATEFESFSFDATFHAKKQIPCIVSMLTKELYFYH
As to the kind of experiment: Caspase-3 activity assay. The test is classed as biochemical. Conditions: positive control; read-out: IC50 Caspase3. Here is the method:
The rate of hydrolysis product, pNA, was monitored continuously by change of absorbance at 405 nm for 5 min, and the initial rate of hydrolysis was determined using the early linear region of the enzymatic reaction curve.

The target of test [2] is Thrombin (Homo sapiens, UniProt P00734). The experiment in a line: Thrombin enzymatic assay. Conditions: positive control. Format: biochemical. Here is the method:
Thrombin enzymatic assay was carried out as follows: Thrombin buffer was 50 mM Tris-HCl pH 8.0,150 mM NaCl 2.5 mM CaCl2, the activity of Thrombin was monitored using the substrate Benzoyl-FVR-AMC (Calbiochem, Darmstadt, Germany) with a final concertration of 20μM.

`CC(=O)N[C@@H](CC(=O)O)C(=O)N[C@@H](CCC(=O)O)C(=O)N[C@H](C(=O)N[C@H](C=O)CC(=O)O)C(C)C` [Ac-DEVD-CHO]: the IC50 in test [1] was found to be 1.7 ± 0.3 nM.

For `CC1CNc2c(cccc2S(=O)(=O)N[C@@H](CCCNC(=N)N)C(=O)N2CC[C@@H](C)C[C@@H]2C(=O)O)C1` (some centres unmarked) [Argatroban], in test [2], the IC50 turned out to be 6 ± 1.3 nM.
